# Reference: patent US12285502B2, “HER3 peptides for imaging and radiotherapy” (The General Hospital Corporation, priority 2016, dated 2025)
# Sequences of proteins named here, by UniProt entry; tags and fusion partners are left off. Residues count along the entry.
# UniProt P21860, 20-643 limits assumed: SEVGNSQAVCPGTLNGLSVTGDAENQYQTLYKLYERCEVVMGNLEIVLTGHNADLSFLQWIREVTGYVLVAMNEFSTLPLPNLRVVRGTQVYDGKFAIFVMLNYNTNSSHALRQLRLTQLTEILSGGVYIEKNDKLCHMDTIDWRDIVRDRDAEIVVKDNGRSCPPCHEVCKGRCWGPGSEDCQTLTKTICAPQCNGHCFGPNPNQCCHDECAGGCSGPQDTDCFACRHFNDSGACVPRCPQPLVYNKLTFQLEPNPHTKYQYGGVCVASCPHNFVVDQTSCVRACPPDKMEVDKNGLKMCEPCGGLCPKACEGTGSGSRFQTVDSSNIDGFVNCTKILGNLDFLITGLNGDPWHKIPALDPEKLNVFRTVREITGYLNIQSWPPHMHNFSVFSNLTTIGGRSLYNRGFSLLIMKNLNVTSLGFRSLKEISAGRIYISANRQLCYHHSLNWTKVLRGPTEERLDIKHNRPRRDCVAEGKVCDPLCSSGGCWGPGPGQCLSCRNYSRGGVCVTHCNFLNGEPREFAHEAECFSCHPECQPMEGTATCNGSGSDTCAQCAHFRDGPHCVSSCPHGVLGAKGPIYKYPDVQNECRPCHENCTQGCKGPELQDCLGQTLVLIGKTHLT
# Key:
# [1] = system: 22RV1 (high HER3 expressing prostate cancer) tumors; parameters: species or system Nu/nu mice; details: mouse, in vivo
# Experimental: (§1) The peptide was radio labeled with the radiometal ^68Ga eluted from a ^68Ge/^68Ga generator (iThemba, South Africa) in 0.05M HCl. The pH of the elution was adjusted to approximately 4 by 2M=2-[4-(2-hydroxyethyl) piperazin-1-yl]ethanesulfonic acid and 100 ng of peptide reacted with the elution for 10 min at room temperature. Peptide was purified from free ^68Ga by reverse phase C18 cartridge (Waters, Milford, MA) and purity determined by ITLC. The peptide was then prepared in normal saline to a specific activity of approximately 300 MBq/mg for injection into mice. Nu/nu mice bearing either 22RV1 (high HER3 expressing prostate cancer) or HCC-1954 (low HER3 expressing breast cancer) tumors were implanted in the right upper flank of mice and grown to approximately 5-7 mm. Radiolabeled HER3 peptide was injected intravenously and allowed to circulate for 1 h prior to PET imaging. PET images were acquired on an Inveon micro PET/CT (Siemens, Knoxville, TN) for 15 minutes in list mode, followed by CT acquisition. Images were constructed using 3D-MLEM (20 subsets) and corrected for scatter and randoms. The tumor and blood uptake was calculated in a 3D region of interest drawn around the tumor and heart, respectively, using CT guidance. Images were post-processed using VivoQuant (InviCRO, Boston, MA).
# [2] = system: HCC-1954 (low HER3 expressing breast cancer) tumors; parameters: species or system Nu/nu mice; details: mouse, in vivo
# Experimental: as §1
# HER3 ECD = HER3 ECD (Homo sapiens, UniProt P21860); details: read-out: affinity; peptide ELISA with increasing concentrations, biotin-conjugated peptide, sigmoidal fit
# Experimental: The purity and molecular weight were determined by high performance liquid chromatography and mass spectrometry. […] Following blocking with 1% non-fat dry milk, increasing concentrations of peptide were incubated with target protein for 1 h at 37° C. Wells were washed with 0.1% TBST, and bound peptide detected by addition of HRP-conjugated streptavidin (Abeam, Cambridge, UK), washing and ABTS substrate incubation for 10 minutes. Absorbance at 405 nm was read by spectrophotometer. […] Plates were washed and bound peptide once again detected by addition of streptavidin-HRP and ABTS and absorbance read at 405 nm.
substance,measurement,setting,value
C-L-P-T-K-F-R-S-C [HER3P1],tumor to background ratios,[1],1.59-3.32
same,tumor to background ratios,[2],0.84-0.93
same,Kd,HER3 ECD,270 nM
